Experimental data reported in PubChem BioAssay AID880 (National Center for Advancing Translational Sciences (NCATS), 2007).
The list shows a part of the results, in another mix than the full data. Activity calls are given as the source filed them. The call rests on the fitted dose curve; in most records, active means well fitted inhibition curve with a large enough effect (not every such curve was filed as active); inactive means no such curve, though single readings can be large or run the other way.

Protein sequences, listed by entry. Tags and fused reporters are not part of them.
UniProt P63096, whole entry, looked up: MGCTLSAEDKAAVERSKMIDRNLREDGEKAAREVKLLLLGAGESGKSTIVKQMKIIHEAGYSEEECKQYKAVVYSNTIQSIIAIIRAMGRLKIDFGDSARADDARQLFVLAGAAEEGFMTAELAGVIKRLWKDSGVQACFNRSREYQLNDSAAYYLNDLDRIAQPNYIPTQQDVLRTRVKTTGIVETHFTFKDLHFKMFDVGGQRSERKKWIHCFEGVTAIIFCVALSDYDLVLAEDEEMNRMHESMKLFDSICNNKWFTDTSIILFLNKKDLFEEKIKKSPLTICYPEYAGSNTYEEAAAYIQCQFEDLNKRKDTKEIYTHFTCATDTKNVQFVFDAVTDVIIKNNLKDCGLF

target: Guanine nucleotide-binding protein G(i) subunit alpha-1 (Homo sapiens) (UniProt P63096); test: qHTS Assay for Inhibitors of RGS12 GoLoco Motif Activity (Red Fluorophore); settings: Gai1:RGS12 GoLoco peptide FP, rhodamine, 10 min; further: nearly all actives have a fitted effect of over 30% in size
From the text: Assay Submitter: Siderovski, David P, University of North Carolina at Chapel Hill
Screening Center PI: Austin, C.P.
Screening Center: NIH Chemical Genomics Center [NCGC]
G-protein-coupled receptors (GPCRs) are major targets for drug discovery. The regulator of G-protein signaling (RGS)-protein family has important roles in GPCR signal transduction. RGS proteins contain a conserved RGS-box, which is often accompanied by other signaling regulatory elements. RGS proteins accelerate the deactivation of G proteins to reduce GPCR signaling; however, some also have an effector function and transmit signals. Combining GPCR agonists with RGS inhibitors should potentiate responses, and could markedly increase the agonist's regional specificity. The diversity of RGS proteins with highly localized and dynamically regulated distributions in brain makes them attractive targets for pharmacotherapy of central nervous system disorders. […] Inhibitors of the binding are detected by a decrease in the fluorescence polarization (FP) of the fluorophore. […]
Four uL of reagents were dispensed to 1536-well Greiner black solid-bottom plates. […] The plates were incubated for 10 min at room temperature, and then read on ViewLux (Perkin-Elmer) High-throughput CCD imager using BODIPY for the rhodamine-labeled decapeptide probe. […]
Potency means the concentration at half of the fitted maximal effect.

SMILES	Potency
O=P(Nc1nccs1)(c1ccccc1)c1nc2ccccc2s1 (configuration not stated)	active: 2 µM
Nc1cccc2c([As](=O)(O)O)cccc12	active: 22.4 µM
